Assay [1] addresses T1, GalE (Homo sapiens, UniProt Q14376).
T1 sequence (Q14376 1-348): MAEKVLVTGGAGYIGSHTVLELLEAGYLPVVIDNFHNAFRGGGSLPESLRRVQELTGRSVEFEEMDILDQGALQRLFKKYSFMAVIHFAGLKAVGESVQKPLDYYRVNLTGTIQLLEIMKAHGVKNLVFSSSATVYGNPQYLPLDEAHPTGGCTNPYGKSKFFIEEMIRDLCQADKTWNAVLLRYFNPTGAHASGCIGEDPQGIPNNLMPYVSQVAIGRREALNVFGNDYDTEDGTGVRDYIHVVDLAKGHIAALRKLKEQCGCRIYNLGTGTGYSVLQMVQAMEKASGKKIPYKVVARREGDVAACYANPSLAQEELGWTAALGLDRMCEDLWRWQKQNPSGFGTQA
The assay is described as follows: Covalent fragment kinetics assay by intact-protein LCMS. The format is binding. Also on record: His tag (3C-cleavable; concluded from HisTrap purification and 3C cleavage) (cleaved yes); made in house; host or cells: Sf21 insect cells (baculovirus, described before) or E. coli BL21 (DE3). Conditions: 100 to 1.56 µM fragment, 0.5 µM GalE.

Assay [2] has as its target T1, GalE. The assay is described as follows: Covalent fragment site identification by tryptic digest LCMS/MS. Details: His tag (3C-cleavable; concluded from HisTrap purification and 3C cleavage) (cleaved yes); made in house; host or cells: Sf21 insect cells (baculovirus, described before) or E. coli BL21 (DE3). The settings on record: 200-fold excess of compound. From the text: • Options: Optimisation of hydrogens, keep tight waters (those that make 3 or more H-bonds), optimise His, Pro, Asn, Gln, and Cys side chains.
• Options: Optimisation of formal and partial charges, protonation states (at pH 7.5) and hydrogen placement.
• Identification of the binding pocket and building of receptor maps around X0213 using the ICM virtual screening function.
• Docking of libraries from SDFiles using the ICM virtual ligand screening function, selecting a thoroughness score of 3.
• All other docking parameters kept as default, and no additional triaging was […]
WBC01 and WBC02 Covalent Fragment Site Identification Mass Spectrometry Recombinant human GalE (10 µM GalE, 25 mM HEPES, 50 mM NaCl) was first incubated with either WBC01 or WBC02 (25, 50, or 100 µM) or matched 1% (V/V) DMSO control for 24 hours at room temperature. […]
bottom plate from a 10 mM source in DMSO. […] The plate was sealed, centrifuged (1 min, 1000 rpm), incubated at 20 °C for 6 h, and 15 µL aliquots were subsequently removed and analyzed by intact protein LC-MS to confirm modification. […]

In assay [3] the target is T1, GalE. The settings on record: no pre-incubation period.

The kinact/KI is the maximal inactivation rate divided by the concentration that gives half of it. `O=C(NCc1cccc(S(=O)(=O)F)c1)Nc1cc(C2CCC2)on1` [WBC10]: the kinact/KI at GalE [1] worked out at 38.2 M⁻¹ s⁻¹. The residue modified result at GalE [2] is “only Tyr211”. The “GalE inhibition without pre-incubation” value on GalE [3] is “little GalE inhibition”.
